Results: ChEMBL document CHEMBL1140232, “Surprising alteration of antibacterial activity of 5"-modified neomycin against resistant bacteria” (2008)

Tested on: Pseudomonas aeruginosa
Assay: Antibacterial activity against aminoglycosides-resistant Pseudomonas aeruginosa ATCC 27853 expressing APH(3')-2b after 12 to 18 hrs
Assay type: functional
In short: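 Broth microdilution MIC. Culture diluted with broth to an absorbance of 0.08–0.1 at 625 nm. 100 μL of this was diluted into 10 mL broth and dispensed into 96-well plates. Each well received 50 μL inoculum plus 50 μL of a 2-fold compound dilution series. Plates were incubated at 35°C for 12–18 h. MIC is the lowest concentration that inhibits growth, from at least three repeats.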

GENTAMICIN was tested. Which MIC did it give?
The MIC was 0.5 mg/L.
